Consider two compounds from ChEMBL document CHEMBL1743201, “Casarett and Doull's Toxicology The Basic Science of Poisons, 7th edition” (2008).

Chains of the proteins cited; added tags and fusions are not shown.
UniProt P05177, whole entry: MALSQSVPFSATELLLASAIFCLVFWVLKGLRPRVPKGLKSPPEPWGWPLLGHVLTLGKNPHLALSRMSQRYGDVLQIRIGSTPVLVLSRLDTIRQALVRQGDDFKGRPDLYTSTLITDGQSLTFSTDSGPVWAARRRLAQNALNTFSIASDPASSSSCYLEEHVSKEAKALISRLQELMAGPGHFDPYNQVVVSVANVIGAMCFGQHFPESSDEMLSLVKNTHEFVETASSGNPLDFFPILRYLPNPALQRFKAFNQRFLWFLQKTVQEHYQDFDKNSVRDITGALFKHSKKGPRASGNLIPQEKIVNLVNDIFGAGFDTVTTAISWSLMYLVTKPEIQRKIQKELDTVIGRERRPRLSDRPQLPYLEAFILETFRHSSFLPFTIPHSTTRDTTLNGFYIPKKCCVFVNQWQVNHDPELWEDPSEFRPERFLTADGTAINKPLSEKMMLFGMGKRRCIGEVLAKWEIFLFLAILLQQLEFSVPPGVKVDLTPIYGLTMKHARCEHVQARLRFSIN

Molecules are shown by their SMILES.

The target of this series is Cytochrome P450 1A2 (Homo sapiens, UniProt P05177). Put plainly: Clinically relevant inhibitors of human liver microsomal P450 enzymes, isoform CYP1A2. The series is classed as ADME. The following applies: microsomes. On the technique in general: Liver microsomes are a subcellular fraction often used to study metabolism.

Turning to `O=c1cc(-c2ccccc2)oc2c1ccc1ccccc12` [ALPHA-NAPHTHOFLAVONE], the Activity entry is recorded as “Inhibitor”.

For `Cc1nc2c([nH]1)c(=O)n(C)c(=O)n2Cc1ccco1` [FURAFYLLINE], the Activity entry is recorded as “Inhibitor”.
